Our source for the inhibition values is ChEMBL document CHEMBL3994667, “Small Molecule Lysyl Oxidase-like 2 (LOXL2) Inhibitors: The Identification of an Inhibitor Selective for LOXL2 over LOX” (ACS Med Chem Lett, 2017).

Calls of active or inactive are those of the source. The calls are words filed in the database; no cut-off is given here.

Holding throughout (assay type): cell-based
Experiment [1] has as its target T1, Lysyl oxidase homolog 2 (Homo sapiens) (UniProt Q9Y4K0).
T1 sequence (whole entry): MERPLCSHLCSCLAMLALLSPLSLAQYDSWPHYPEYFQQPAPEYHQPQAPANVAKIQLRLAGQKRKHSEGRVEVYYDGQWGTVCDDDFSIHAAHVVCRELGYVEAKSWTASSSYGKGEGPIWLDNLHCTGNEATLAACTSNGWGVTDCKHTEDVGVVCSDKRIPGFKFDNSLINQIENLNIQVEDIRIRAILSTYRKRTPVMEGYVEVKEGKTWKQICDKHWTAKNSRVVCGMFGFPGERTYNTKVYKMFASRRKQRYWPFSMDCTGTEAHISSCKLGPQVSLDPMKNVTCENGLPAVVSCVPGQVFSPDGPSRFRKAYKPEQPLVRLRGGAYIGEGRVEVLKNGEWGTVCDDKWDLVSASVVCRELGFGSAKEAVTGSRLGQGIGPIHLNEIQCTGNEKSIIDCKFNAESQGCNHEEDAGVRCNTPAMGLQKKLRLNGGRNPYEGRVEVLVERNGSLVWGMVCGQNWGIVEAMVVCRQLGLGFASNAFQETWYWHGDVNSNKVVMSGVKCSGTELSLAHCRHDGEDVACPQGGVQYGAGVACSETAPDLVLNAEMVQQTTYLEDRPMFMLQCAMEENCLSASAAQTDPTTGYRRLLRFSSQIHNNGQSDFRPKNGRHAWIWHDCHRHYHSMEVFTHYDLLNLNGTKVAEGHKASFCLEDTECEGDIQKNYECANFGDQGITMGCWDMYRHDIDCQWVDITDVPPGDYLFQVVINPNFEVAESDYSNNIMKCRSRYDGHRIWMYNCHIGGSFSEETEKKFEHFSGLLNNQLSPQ
Put plainly: Inhibition of full length recombinant human LOXL2 expressed in CHO cells assessed as reduction in H2O2 production using DAP as substrate preincubated for 4 hrs followed by substrate addition measured every 2 minutes for 50 minutes by Amplex red dye based fluorescence assay. An outline of the steps:
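Human LOXL2 comes from serum-free concentrated conditioned media of stably transfected CHO cells. Inhibitor is pretreated with enzyme for 4 h. DAP oxidative deamination is monitored as H2O2 by Amplex Red.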

The target in experiment [2] is T1, Lysyl oxidase homolog 2 (Homo sapiens). Put plainly: Inhibition of full length recombinant human LOXL2 expressed in CHO cells assessed as reduction in H2O2 production using DAP as substrate measured every 2 minutes for 50 minutes by Amplex red dye based fluorescence assay. In a few lines:
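Enzyme source: serum-free concentrated conditioned media from CHO cells stably expressing human LOXL2. H2O2 from oxidative deamination of 1,5-diaminopentane is detected by Amplex Red. Inhibitor is preincubated with enzyme for 15 min or 2 h; 2 h is the standard screening time. IC50 is the geometric mean x/÷ geometric standard deviation, with N-values reported.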

The target is the same in experiment [3]. Kind of experiment: Irreversible inhibition of full length recombinant human LOXL2 expressed in CHO cells assessed as reduction in H2O2 production at 1000 times IC50 using DAP as substrate preincubated for 2 hrs followed by compound washout and second incubation up to 24 hrs before substrate addition measured every 2 mins for 40 mins by Amplex red dye based fluorescence assay.

The target is the same in experiment [4]. Put plainly: Irreversible inhibition of full length recombinant human LOXL2 expressed in CHO cells assessed as reduction in H2O2 production at 1000 times IC50 using DAP as substrate preincubated for 2 hrs followed by compound washout and second incubation for 2 hrs before substrate addition measured every 2 mins for 40 mins by Amplex red dye based fluorescence assay relative to control.

As for `N#CCCN`, the inhibition entry in experiment [1] was “Active”. The inhibition result in experiment [2] was “Tde”.
Consider `NCc1ccnc(Cl)c1`, for which the inhibition entry in experiment [3] was “Active”. Moreover, the inhibition in experiment [4] was found to be 35%.
